One data set concerns the target T1, MATE1 (Homo sapiens, UniProt Q96FL8).
T1 construct: expressed in transfected cells; gift of Dr. Kathy Giacomini, UCSF
T1 sequence (Q96FL8 1-570): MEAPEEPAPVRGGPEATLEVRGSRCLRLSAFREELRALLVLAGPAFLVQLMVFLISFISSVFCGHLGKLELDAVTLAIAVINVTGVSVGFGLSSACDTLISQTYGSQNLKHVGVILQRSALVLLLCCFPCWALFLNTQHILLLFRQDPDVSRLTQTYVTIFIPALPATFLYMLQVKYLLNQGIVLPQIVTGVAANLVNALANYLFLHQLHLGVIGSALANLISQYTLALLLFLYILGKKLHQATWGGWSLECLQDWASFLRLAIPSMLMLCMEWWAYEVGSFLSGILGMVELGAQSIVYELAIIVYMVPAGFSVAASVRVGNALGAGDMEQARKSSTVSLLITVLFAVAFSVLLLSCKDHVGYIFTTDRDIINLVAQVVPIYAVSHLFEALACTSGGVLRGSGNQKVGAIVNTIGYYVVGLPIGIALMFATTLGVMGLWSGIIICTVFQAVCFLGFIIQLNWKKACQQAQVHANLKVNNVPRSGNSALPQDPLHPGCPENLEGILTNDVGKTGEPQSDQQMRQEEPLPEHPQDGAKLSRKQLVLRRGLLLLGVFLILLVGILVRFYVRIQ
As to the kind of experiment: Inhibition of ASP+ uptake in HEK293 cells overexpressing MATE1. Type of data set: cell-based. Particulars: HEK293-MATE1, ASP+ 10 μM, 1 min, 37 °C; Avg ± SE (n = 3).

The next data set relates to OCT2 and MATE1. As to the kind of experiment: Inhibition of basolateral-to-apical transcellular transport of ASP+ in OCT2/MATE1 double-transfected MDCK cells (Transwell). Particulars: human, probe ASP+ (25 μM, basolateral chamber).

Experimental findings from PMC8234231, “In Vitro Inhibition of Renal OCT2 and MATE1 Secretion by Antiemetic Drugs” (International Journal of Molecular Sciences, 2021) are described below.

One may read the IC50 as the concentration that inhibits the measured activity by half. High values mean weaker potency in that assay, low ones greater potency in that assay. In the case of `CN/C(=N/CCSCc1nc[nH]c1C)NC#N` [Cimetidine], at MATE1, it took 230 ± 200 nM to reach half-maximal inhibition (IC50).

For the compound `Cc1nccn1CC1CCc2c(c3ccccc3n2C)C1=O` (stereo not drawn) [Ondansetron], the IC50 on MATE1 turned out to be 100 ± 100 nM.

Broadly, the inhibition is the relative decrease from the control value, in per cent. Lower therefore signals a response near the control. `Cc1cc2c(s1)Nc1ccccc1N=C2N1CCN(C)CC1` [olanzapine] gave an inhibition at 120 min, 20 μM with OCT2 and MATE1 of 28%.
